The record followed here is patent publication US11173151B2, “Substituted triazole derivatives and uses thereof” (BAYER AKTIENGESELLSCHAFT, priority 2017, dated 2021).

Protein sequences, listed by entry. Tags and fused reporters are not part of them.
UniProt P37288, whole entry: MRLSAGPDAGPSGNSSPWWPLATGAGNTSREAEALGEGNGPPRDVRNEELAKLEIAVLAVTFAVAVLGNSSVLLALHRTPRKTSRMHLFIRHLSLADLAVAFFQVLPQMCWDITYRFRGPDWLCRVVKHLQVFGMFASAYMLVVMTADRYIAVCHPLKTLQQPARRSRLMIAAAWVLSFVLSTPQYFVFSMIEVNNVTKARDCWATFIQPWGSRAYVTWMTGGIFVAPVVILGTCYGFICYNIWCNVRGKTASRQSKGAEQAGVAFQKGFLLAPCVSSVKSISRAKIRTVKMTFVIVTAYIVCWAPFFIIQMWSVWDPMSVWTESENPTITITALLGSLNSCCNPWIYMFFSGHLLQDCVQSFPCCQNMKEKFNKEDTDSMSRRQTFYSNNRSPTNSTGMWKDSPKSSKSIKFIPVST
UniProt P30518, whole entry: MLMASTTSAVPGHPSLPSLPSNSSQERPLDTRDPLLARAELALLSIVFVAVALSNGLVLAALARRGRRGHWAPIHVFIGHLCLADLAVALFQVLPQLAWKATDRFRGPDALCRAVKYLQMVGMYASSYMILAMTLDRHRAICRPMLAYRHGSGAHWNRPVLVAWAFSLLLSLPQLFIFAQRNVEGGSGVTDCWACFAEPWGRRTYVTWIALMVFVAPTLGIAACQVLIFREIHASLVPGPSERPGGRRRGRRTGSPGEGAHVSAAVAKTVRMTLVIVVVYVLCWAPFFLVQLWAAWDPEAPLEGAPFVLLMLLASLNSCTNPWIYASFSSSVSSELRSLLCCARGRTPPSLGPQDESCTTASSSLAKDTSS

The target of one test is human V1a receptor (Homo sapiens, UniProt P37288). The test can be described thus: Cellular in vitro assay for determining vasopressin receptor activity, V1a receptor cell line (CHO, aequorin luminescence). As for the experimental part:
(§1) B-1. Cellular In Vitro Assay for Determining Vasopressin Receptor Activity
(§2) The identification of agonists and antagonists of the V1a and V2 vasopressin receptors from humans, rats and dogs as well as the quantification of the activity of the compounds of the invention is carried out using recombinant cell lines. These cell lines originally derive from a hamster's ovary epithelial cell (Chinese Hamster Ovary, CHO K1, ATCC: American Type Culture Collection, Manassas, Va. 20108, USA). The test cell lines constitutively express the human, rat or dog V1a or V2 receptors. […] The resulting vasopressin receptor cells react to stimulation of the recombinantly expressed V1a receptors by intracellular release of calcium ions, which can be quantified by the resulting photoprotein luminescence. […] The bioluminescence of the cell lines is detected using a suitable luminometer [Milligan G, Marshall F, Rees S, Trends in Pharmacological Sciences 17, 235-237 (1996)]. […]
On the day before the assay, the cells are plated out in culture medium (DMEM/F12, 2% FCS, 2 mM glutamine, 10 mM HEPES, 5 μg/ml coelenterazine) in 384-well microtiter plates and kept in a cell incubator (96% humidity, 5% v/v CO2, 37° C.). […] The resulting light signal is measured immediately in a luminometer. […]

The target of a further test is human V2 receptor (Homo sapiens, UniProt P30518). Nature of the test: Cellular in vitro assay for determining vasopressin receptor activity, V2 receptor cell line (CHO, CRE-luciferase). Conditions: read-out: IC50 hV2; CHO cell line transfected with human V2 receptor; [Arg8]-vasopressin at EC50 concentration, 3 hours. Here is the method: as §1, §2
On the day before the assay, the cells are plated out in culture medium (DMEM/F12, 2% FCS, 2 mM glutamine, 10 mM HEPES) in 384-well microtiter plates and kept in a cell incubator (96% humidity, 5% v/v CO2, 37° C.). […] Upon addition of the cell lysis reagent Triton™ and the substrate luciferin, luminescence of firefly luciferase is measured in a luminometer. […]

For `COCC(=O)Nc1ncccc1-n1cnc(Cn2nc(-c3ccc(Cl)cc3)n(C[C@H](O)C(F)(F)F)c2=O)n1`, the IC50 on human V1a receptor (read-out: IC50 hV1a, CHO cell line transfected with human V1a receptor, [Arg]-vasopressin at EC50 concentration) turned out to be 27 nM; on human V2 receptor it was 1350 nM. In addition, the “ratio IC50 hV2/hV1a” value at human V1a receptor (selectivity ratio IC50 hV2 / IC50 hV1a) was found to be 50.0.

In general, IC50 refers to the concentration that inhibits the measured activity by half.
